# Measurements from patent US11737994B2, “Topical compositions for pain relief, manufacture and use” (priority 2014, dated 2023).
# Test system: osteoarthritis pain
# Test: Four daily dose treatments of osteoarthritis, efficacy (Example 11)
# Type: in vivo, human
# Conditions: before capsaicin treatment, on Tramadol 50-100 mg tid; pain scale
compound,measurement,value
COc1cccc(C2(O)CCCCC2CN(C)C)c1 (centres unmarked),Pain level,approximately 4
same,"Sharp shooting pains, pain level",8-9
